# Measurements published in US20230219951A1, “PYRIDINE-PYRIMIDINE DERIVATIVE, PREPARATION METHOD THEREFOR AND PHARMACEUTICAL USE THEREOF” (Jiangsu Hengrui Pharmaceuticals Co., Ltd., priority 2020, published 2023).
# Sequences of proteins named here, by UniProt entry; tags and fusion partners are left off. A change or cut given only in a name is not applied to a line headed by its entry. Residues count along the entry.
# UniProt Q07889, 564-1049 limits assumed, stated change not applied: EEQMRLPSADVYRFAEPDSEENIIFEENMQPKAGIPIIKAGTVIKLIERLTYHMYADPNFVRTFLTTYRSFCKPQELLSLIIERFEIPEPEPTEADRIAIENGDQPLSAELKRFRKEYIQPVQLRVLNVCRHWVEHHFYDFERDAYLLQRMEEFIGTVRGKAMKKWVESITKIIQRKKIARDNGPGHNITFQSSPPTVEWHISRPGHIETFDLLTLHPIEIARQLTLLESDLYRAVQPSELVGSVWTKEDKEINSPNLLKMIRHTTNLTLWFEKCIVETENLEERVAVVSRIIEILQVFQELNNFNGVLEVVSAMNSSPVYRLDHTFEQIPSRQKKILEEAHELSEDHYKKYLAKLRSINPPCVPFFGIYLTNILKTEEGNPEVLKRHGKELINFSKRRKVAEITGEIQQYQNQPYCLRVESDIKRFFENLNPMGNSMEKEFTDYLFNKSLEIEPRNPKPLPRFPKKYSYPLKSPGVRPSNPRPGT
# Tests used:
# [1] = target: interaction between the KRAS protein subtype G12D and the SOS1 protein (Homo sapiens, UniProt Q07889); experiment: Inhibition of the interaction between KRAS G12D and SOS1 protein (AlphaLISA/AlphaScreen); conditions: read-out: SOS1-G12D IC50/nM; KRAS G12D + GST-TEV-SOS1(564-1049) + GDP
# Method: (§1) Test Example 1: Inhibitory Ability of Compounds of the Present Disclosure to the Interaction Between the KRAS Protein Subtype G12D or G12V and the SOS1 Protein. The inhibitory ability of the compounds of the present disclosure to the interaction between the KRAS protein subtype G12D or G12V and the SOS1 protein was determined by the following method. The experimental method was briefly described as follows:
# (§2) 1. The experimental buffer was prepared prior to the start of the experiment: 1×PBS+0.1% BSA+0.05% tween 20.
# (§3) 2. KRAS G12D and KRAS-G12V proteins were labeled with biotin using the biotin labeling kit.
# (§4) 1. Firstly, the biotin-labeled KRAS G12D or KRAS G12V protein was mixed and incubated with the SOS1 protein and GDP for later use.
# (§5) 2. AlphaLISA glutathione acceptor beads and AlphaScreen streptavidin donor beads were mixed at a ratio of 1:1 to make the concentration of 40 μg/mL for later use.
# (§6) 3. The compound was formulated with the experimental buffer to obtain 10 concentration points by 5-fold gradient dilution from an initial concentration of 40 μM.
# (§7) 4. In the 384-well microplate, 10 μL of a mixture of KRAS G12D or KRAS G12V protein and SOS1 and GDP and 5 μL of the diluted compound were added to each well and incubated at room temperature for 30 min away from the light.
# (§8) 5. Then, 5 μL of a mixture of AlphaLISA glutathione acceptor beads and AlphaScreen streptavidin donor beads was added to each well and incubated at room temperature for 60 min away from the light.
# (§9) 6. The fluorescence values were read on a multi-mode microplate reader.
# (§10) 7. IC50 values of the compounds were calculated using Graphpad Prism.
# [2] = target: interaction between the KRAS protein subtype G12V and the SOS1 protein (Homo sapiens, UniProt Q07889); experiment: Inhibition of the interaction between KRAS G12V and SOS1 protein (AlphaLISA/AlphaScreen); conditions: read-out: SOS1-G12V IC50/nM; KRAS G12V + GST-TEV-SOS1(564-1049) + GDP
# Method: as §1, §2, §3, §4, §5, §6, §7, §8, §9, §10
# H358 cells = experiment: Inhibition of proliferation of H358 cells (CellTiter-Glo 3D); conditions: read-out: IC50 (nM), proliferation of H358 cells, low adsorption plate, 120 h
# Method: This example is intended to evaluate the inhibition effect of the compounds of the present disclosure on the KRAS target (containing the G12C mutation) by testing the inhibition effect of the compounds of the present disclosure on the proliferation of H358 cells.
# H358 cells (ATCC, CRL-5807) were cultured in a complete medium, namely RPMI1640 medium (Hyclone, SH30809.01) containing 10% fetal bovine serum (Corning, 35-076-CV). On the first day of the experiment, the H358 cells were seeded into a 96-well low adsorption plate (Coming, CLS7007-24EA) at a density of 1500 cells/well with a complete medium to form 90 μL of cell suspension per well. The plate was centrifuged at 2000 rpm for 5 min at room temperature and then incubated overnight in a cell incubator at 37° C. with 5% CO2. The next day, 10 μL of test compound diluted in a gradient prepared with the complete medium was added to each well. The final concentrations of the compound were 9 concentration points obtained by 5-fold gradient dilution from 10 μM. A blank control containing 0.1% DMSO was set. The plate was incubated in a cell incubator at 37° C. with 5% CO2 for 120 h. On the seventh day, the 96-well cell culture plate was taken out and 50 μL of CellTiter-Glo® 3D reagent (Promega, G9682) was added into each well. The plate was shaken at room temperature for 25 min, pipetted and mixed well, from which 50 μL of the mixture was transferred into a white impermeable 96-well plate (PE, 6005290). The luminescence signal values were read using a multi-mode microplate reader (PerkinElmer, VICTOR 3).
# IC50 values for the inhibitory activity of the compounds were calculated using Graphpad Prism software.
IC50 [1] [nM],IC50 [2] [nM],IC50 (H358 cells) [nM],SMILES
10,38,104,"Cc1nc(N[C@H](C)c2cccc(C(F)(F)CO)c2F)c2cc(C3CCC(O)CC3)c(=O)[nH]c2n1 (single isomer, unassigned) [Shorter retention time in 11-p1 and 11-p2]"
21,23,72,"Cc1nc(N[C@H](C)c2cccc(C(F)(F)CO)c2F)c2cc(C3CCC(O)CC3)c(=O)[nH]c2n1 (single isomer, unassigned) [Longer retention time in 11-p1 and 11-p2]"
14,47,34,"Cc1nc(N[C@H](C)c2cccc(C(F)F)c2F)c2cc(C3(O)CCC(C(=O)N(C)C)CC3)c(=O)[nH]c2n1 (single isomer, unassigned) [Shorter retention time in 14-p1 and 14-p2]"
107,411,597,"Cc1nc(N[C@H](C)c2cccc(C(F)F)c2F)c2cc(C3(O)CCC(C(=O)N(C)C)CC3)c(=O)[nH]c2n1 (single isomer, unassigned) [Longer retention time in 14-p1 and 14-p2]"
